The record followed here is ChEMBL document CHEMBL4765437, “Design, synthesis and biological evaluation of pyrazolo[3,4-d]pyrimidine-based protein kinase D inhibitors” (Eur J Med Chem, 2020).

As usually defined, the IC50 is the midpoint of a concentration-inhibition curve.

In the experiment the target is T1, Serine/threonine-protein kinase D3 (Homo sapiens, UniProt O94806).
T1 sequence (O94806 whole entry): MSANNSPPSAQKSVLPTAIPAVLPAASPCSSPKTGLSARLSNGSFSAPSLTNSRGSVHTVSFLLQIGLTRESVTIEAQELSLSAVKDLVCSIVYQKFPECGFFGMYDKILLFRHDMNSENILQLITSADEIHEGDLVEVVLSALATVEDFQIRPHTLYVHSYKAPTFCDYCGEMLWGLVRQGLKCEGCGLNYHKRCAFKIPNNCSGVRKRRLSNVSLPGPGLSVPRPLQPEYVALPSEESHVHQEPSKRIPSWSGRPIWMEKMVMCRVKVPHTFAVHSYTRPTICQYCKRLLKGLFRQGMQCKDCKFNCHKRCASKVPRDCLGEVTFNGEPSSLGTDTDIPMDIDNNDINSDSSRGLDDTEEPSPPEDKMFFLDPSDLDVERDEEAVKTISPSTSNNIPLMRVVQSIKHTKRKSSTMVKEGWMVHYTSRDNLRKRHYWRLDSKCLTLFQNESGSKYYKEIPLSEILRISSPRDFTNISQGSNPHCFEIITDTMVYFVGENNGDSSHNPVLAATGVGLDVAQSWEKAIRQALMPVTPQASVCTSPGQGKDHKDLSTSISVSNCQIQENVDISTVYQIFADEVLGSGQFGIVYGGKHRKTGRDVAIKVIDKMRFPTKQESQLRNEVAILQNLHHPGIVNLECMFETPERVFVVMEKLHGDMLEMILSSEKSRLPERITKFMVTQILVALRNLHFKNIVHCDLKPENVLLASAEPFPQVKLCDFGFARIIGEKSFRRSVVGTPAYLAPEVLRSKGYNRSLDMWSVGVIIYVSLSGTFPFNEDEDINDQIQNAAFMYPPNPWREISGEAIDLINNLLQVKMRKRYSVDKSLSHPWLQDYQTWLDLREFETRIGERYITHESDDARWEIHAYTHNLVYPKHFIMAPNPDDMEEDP
Description: Inhibition of recombinant FLAG-tagged PKD3 (unknown origin) expressed in HEK293T cells using Syntide-2 as substrate measured after 15 mins by ADP-Glo assay. On the technique in general: ADP-Glo turns the ADP formed in a reaction into a luminescent signal.

As for `CC[C@@H](N)CNc1ccnc(-c2cc(-c3cnn(C)c3)ccc2O)n1`, the concentration for half-maximal inhibition (IC50) worked out at 6 nM.
